Key:
[1] = biological target: catalytic domain of human SHP2 (Homo sapiens, UniProt Q06124); test: Enzyme activity assay of SHP2 catalytic domain with fluorogenic substrate DiFMUP; format: biochemical; settings: read-out: IC50 SHP2, hydrazine fragments alone, Supporting Table 1
[2] = biological target: catalytic domain of human PTP1B (Homo sapiens, UniProt P18031); test: Enzyme activity assay of PTP1B with fluorogenic substrate DiFMUP; settings: read-out: IC50 PTP1B, hydrazine fragments alone, Supporting Table 1

The chains behind the UniProt entries cited, without tags or fusion partners. Residues count along the entry.
UniProt Q06124, 225-541 limits assumed: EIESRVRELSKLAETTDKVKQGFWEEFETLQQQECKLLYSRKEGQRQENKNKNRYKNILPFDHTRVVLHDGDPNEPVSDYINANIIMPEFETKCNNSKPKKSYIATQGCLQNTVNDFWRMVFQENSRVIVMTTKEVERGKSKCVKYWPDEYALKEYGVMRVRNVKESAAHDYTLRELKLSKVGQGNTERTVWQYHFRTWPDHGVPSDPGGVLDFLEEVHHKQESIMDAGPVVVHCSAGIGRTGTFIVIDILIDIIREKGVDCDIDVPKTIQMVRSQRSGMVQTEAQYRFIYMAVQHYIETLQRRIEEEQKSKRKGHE
UniProt P18031, 1-321 limits assumed: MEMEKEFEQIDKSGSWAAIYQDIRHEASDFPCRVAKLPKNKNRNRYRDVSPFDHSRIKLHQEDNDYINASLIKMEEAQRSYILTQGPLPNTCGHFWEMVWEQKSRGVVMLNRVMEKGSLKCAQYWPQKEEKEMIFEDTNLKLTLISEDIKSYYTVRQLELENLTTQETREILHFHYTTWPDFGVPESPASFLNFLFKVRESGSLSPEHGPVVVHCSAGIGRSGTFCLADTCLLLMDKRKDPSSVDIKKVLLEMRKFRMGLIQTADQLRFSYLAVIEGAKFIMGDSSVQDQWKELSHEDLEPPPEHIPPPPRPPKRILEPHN

Compound	IC50 [1] [µM]	IC50 [2] [µM]
NNc1ccc(C(F)(F)F)cc1	> 250	> 250
NNc1cc(Cl)c(S(=O)(=O)O)cc1Cl	4.3	> 250
NNc1cc(Br)c(S(=O)(=O)O)cc1Br	77	244
NNc1cc(F)c(S(=O)(=O)O)cc1F	12.6	> 250
NNc1ccc(S(=O)(=O)O)cc1Cl	74	29

Reference: article PMC9804470, “A Formylglycine‐Peptide for the Site‐Directed Identification of Phosphotyrosine‐Mimetic Fragments” (Chemistry (Weinheim an Der Bergstrasse, Germany), 2022)
